The nature of this series: Drug exposure in ApoE KO mice fed supplemented chow. The series is classed as in vivo, mouse. To be noted: chow supplemented at 1.3 mg/g. As to the method: Six week old male ApoE KO mice were treated with 4-{3-[1-benzhydryl-5-chloro-2-(2-{[(3,4-dichlorobenzyl)sulfonyl]amino}ethyl)-1H-indol-3-yl]propyl}benzoic acid (Compound C). Mice were fed a normal chow diet supplemented with Compound C at 1.3 mg/g and 3.3 mg/g (resulting in ˜250 ng/mL and ˜500 ng/mL maximum drug exposure, respectively) or vehicle for 20 weeks.

The results in this text go back to patent US8283373B2, “Inhibitors of cytosolic phospholipase A2” (Pfizer Inc., priority 2005, dated 2012).

Turning to `O=C(O)c1ccc(CCCc2c(CCNS(=O)(=O)Cc3ccc(Cl)c(Cl)c3)n(C(c3ccccc3)c3ccccc3)c3ccc(Cl)cc23)cc1` [Compound C, 4-{3-[1-benzhydryl-5-chloro-2-(2-{[(3,4-dichlorobenzyl)sulfonyl]amino}ethyl)-1H-indol-3-yl]propyl}benzoic acid], the maximum drug exposure is given as approximately 250 ng/mL.
